By UniProt entry, the sequences of proteins in these tests, tags left out. Residues count along the entry.
UniProt P29597, whole entry: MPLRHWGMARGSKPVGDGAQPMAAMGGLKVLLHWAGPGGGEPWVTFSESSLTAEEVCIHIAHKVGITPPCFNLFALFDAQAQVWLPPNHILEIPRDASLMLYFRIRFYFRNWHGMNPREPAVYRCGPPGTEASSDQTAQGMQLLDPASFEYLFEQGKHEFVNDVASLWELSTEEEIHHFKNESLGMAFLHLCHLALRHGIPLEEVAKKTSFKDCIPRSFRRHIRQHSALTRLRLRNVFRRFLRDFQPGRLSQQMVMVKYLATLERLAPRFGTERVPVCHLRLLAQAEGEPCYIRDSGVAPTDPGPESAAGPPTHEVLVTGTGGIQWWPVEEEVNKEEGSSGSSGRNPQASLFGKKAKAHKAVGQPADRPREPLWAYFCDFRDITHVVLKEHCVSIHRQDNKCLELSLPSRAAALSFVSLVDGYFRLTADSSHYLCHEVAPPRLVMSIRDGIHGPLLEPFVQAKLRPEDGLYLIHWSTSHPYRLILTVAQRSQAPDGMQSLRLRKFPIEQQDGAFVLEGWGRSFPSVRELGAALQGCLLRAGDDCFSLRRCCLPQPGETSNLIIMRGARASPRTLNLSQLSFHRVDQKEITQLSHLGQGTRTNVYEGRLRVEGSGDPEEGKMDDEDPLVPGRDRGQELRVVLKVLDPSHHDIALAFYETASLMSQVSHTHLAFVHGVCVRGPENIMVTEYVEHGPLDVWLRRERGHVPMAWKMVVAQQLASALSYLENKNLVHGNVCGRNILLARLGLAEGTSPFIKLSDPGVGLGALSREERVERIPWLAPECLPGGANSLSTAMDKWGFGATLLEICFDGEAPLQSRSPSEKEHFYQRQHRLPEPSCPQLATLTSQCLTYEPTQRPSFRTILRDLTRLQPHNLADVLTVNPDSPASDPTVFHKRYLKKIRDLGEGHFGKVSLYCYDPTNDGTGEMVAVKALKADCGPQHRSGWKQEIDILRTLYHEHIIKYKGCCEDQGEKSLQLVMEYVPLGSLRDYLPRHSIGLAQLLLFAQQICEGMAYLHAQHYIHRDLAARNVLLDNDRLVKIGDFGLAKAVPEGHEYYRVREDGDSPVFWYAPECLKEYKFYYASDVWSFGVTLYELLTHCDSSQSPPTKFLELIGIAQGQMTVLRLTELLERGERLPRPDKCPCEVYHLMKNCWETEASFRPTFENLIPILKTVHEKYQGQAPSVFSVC
UniProt P29597, 589-875 limits assumed: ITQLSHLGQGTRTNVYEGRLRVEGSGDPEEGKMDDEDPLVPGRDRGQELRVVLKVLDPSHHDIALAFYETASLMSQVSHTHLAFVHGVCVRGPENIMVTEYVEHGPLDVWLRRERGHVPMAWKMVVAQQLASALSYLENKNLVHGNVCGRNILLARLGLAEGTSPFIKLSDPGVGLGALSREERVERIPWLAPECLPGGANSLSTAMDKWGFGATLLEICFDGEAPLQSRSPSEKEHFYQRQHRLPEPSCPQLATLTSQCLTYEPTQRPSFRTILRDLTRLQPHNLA
UniProt P29597, 897-1176 limits assumed: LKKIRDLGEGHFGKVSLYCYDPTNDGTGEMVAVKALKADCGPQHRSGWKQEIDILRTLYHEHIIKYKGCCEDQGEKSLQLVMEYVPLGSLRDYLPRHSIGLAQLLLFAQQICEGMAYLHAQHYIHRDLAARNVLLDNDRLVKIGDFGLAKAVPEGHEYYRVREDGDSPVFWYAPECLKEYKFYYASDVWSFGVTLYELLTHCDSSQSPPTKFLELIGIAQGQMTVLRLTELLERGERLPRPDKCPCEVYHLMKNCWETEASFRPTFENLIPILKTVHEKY
UniProt O60674, 849-1124 limits assumed: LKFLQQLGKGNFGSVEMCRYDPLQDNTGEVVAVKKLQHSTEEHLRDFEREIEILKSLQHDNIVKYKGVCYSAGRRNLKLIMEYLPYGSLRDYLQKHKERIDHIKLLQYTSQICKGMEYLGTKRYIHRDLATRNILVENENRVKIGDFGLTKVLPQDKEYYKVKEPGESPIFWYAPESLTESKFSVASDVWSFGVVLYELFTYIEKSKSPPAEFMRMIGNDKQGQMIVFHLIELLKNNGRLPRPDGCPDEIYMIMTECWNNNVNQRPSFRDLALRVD
UniProt P52333, 822-1111 limits assumed: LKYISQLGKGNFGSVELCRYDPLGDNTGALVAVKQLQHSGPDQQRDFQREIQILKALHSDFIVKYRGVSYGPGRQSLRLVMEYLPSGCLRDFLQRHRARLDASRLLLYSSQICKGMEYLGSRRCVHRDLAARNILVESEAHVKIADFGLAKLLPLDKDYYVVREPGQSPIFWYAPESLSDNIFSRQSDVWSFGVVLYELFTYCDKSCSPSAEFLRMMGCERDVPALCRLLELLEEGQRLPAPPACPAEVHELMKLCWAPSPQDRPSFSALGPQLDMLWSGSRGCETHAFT
UniProt P23458, whole entry partner: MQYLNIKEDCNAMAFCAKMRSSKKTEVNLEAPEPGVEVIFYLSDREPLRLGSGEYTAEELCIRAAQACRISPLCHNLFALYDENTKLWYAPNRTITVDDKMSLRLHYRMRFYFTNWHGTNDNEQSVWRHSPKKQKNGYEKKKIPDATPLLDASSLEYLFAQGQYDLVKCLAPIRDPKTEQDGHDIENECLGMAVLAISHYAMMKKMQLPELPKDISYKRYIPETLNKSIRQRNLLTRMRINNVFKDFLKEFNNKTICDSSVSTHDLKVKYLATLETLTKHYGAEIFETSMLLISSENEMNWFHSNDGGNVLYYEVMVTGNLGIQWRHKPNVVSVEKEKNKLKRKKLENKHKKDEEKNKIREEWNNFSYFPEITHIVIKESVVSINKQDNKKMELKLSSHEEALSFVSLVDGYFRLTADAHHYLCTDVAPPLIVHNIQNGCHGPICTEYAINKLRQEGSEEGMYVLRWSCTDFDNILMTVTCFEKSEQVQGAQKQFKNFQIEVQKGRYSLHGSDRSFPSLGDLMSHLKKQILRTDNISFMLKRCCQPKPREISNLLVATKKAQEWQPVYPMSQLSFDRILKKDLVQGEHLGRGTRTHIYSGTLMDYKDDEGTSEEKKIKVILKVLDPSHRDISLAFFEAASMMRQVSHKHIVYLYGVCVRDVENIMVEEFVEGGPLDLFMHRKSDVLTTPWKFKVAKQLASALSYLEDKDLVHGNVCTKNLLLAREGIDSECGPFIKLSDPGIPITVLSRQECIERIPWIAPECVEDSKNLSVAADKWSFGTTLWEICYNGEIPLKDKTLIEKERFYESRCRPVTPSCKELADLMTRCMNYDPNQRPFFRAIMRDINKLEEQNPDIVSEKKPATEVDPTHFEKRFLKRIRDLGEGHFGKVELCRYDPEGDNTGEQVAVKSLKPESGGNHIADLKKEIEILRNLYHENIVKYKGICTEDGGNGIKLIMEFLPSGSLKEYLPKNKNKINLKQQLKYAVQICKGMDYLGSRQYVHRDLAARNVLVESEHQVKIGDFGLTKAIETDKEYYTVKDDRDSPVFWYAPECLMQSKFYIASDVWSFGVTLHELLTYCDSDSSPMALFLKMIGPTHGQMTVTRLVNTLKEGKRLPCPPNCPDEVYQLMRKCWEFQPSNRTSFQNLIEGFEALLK
UniProt P23458, 875-1153 limits assumed: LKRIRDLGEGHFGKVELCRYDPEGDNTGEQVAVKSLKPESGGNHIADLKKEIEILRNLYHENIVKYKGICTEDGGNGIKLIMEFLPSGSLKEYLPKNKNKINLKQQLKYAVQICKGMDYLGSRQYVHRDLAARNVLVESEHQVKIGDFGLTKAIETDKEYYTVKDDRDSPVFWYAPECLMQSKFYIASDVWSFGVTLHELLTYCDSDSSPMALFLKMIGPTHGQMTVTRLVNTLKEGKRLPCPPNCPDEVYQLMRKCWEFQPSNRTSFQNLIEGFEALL

The first experiment concerns the target TYK2 pseudokinase domain (Homo sapiens, UniProt P29597). Nature of the experiment: TYK2 JH2 pseudokinase domain binding affinity, fluorescence polarization (BPS Bioscience inhibitor screening kit). The following applies: read-out: TYK2 JH2 IC50; polarized fluorescence, 25°C, 1 hour.
In the case of `CCn1cc(-c2cc(OCC(F)F)c(=O)n([C@H](C)C(F)(F)F)n2)c2cc(NC(C)=O)ncc21`, the IC50 came out at 0.355 µM.
For the molecule `[2H]C([2H])([2H])C(=O)Nc1cc2c(-c3cc(OCC(C)(F)F)c(=O)n([C@@H](C)C(F)(F)F)n3)cn(C)c2cn1`, the IC50 worked out at 0.029 µM.
In the case of `CC(C)COc1cc(-c2cn(C3CCC3)c3cnc(NC(N)=O)cc23)nn(C2(C)CCC2)c1=O`, the IC50 was 0.032 µM.
As for `CC(=O)Nc1cc2c(-c3cc(OCC(C)C)c(=O)n(C(C)C(F)(F)F)n3)cn(C3CC3)c2cn1` (stereo not drawn), the IC50 came out at 0.045 µM.
With `COC1CN(c2cc(-c3cn(C4CC(C#N)C4)c4cnc(NC(C)=O)cc34)nn(C3(C)CCOC3)c2=O)C1` (stereo not drawn), the IC50 stood at 0.02 µM.
Regarding `CC(=O)Nc1cc2c(-c3cc(OCC(C)C)c(=O)n(C4(C)CCC4)n3)cn(C)c2cn1`, the IC50 stood at 0.015 µM.
Turning to `CC(=O)Nc1cc2c(-c3cc(OCC(F)(F)F)c(=O)n([C@@H](C)C(F)(F)F)n3)cn(C)c2cn1`, the IC50 stood at 0.044 µM.

For a further experiment, the target named is JAK2 JH1 (Homo sapiens, UniProt O60674). Nature of the experiment: JAK kinase domain activity, ADP-Glo kinase assay, JAK2. Particulars: read-out: JAK2 JH1 IC50, substrate IGF1R peptide, top concentration 10000 nM. As to the method:
(§1) Experimental Example 2: JAK Kinase Domain Activity Analysis
(§2) Kinase domain activity of the JAK family was analyzed using the ADP-Glo kinase assay kit (Promega). The evaluation of the compound was performed according to the manufacturer's protocol, and the method thereof is as follows:
(§3) A 10 mM test compound was diluted to 0.5 mM using DMSO in a 96-well plate, and then 5-fold serial dilutions were performed in DMSO. The diluted compound was diluted to 1/10 with 1x reaction buffer (composition) to prepare a 5x compound solution. 5 uL of the 5x compound solution was mixed with a substrate prepared in the reaction buffer (40 mM Tris, 20 mM MgCl2 and 0.1 mg/ml BSA, 0.05 mM DTT, pH 7.5), and an ATP mixture (10 uL). Next, an enzyme reaction was initiated by adding the JAK family enzyme (10 uL) prepared in the reaction buffer. A short rotation was performed to settle all the solution to the bottom of the plate. The final concentrations of the test compounds in the reaction mixture were 10000, 2000, 400, 80, 16, and 3.2 nM. The concentrations of the control compounds (Brepocitinib or Tofacitinib) were 10 times lower. The enzyme reaction was performed at 25°C for 1 hour. 25 uL of ADP-Glo reagent was added and the reaction was performed at 25 °C for 1 hour. The reaction mixed 50 uL of kinase detection reagent and was stopped, and a luminescence signal was measured using Synergy neo (BioTek Instruments, Inc.). […]
For `CCn1cc(-c2cc(OCC(F)F)c(=O)n([C@H](C)C(F)(F)F)n2)c2cc(NC(C)=O)ncc21`, the IC50 is above 10 µM.
Still for that read-out and setting: as for `[2H]C([2H])([2H])C(=O)Nc1cc2c(-c3cc(OCC(C)(F)F)c(=O)n([C@@H](C)C(F)(F)F)n3)cn(C)c2cn1`, the figure is 1.19 µM; as for `CC(C)COc1cc(-c2cn(C3CCC3)c3cnc(NC(N)=O)cc23)nn(C2(C)CCC2)c1=O`, 6.62 µM; as for `CC(=O)Nc1cc2c(-c3cc(OCC(C)C)c(=O)n(C(C)C(F)(F)F)n3)cn(C3CC3)c2cn1` (stereo not drawn), above 10 µM.
For the molecule `COC1CN(c2cc(-c3cn(C4CC(C#N)C4)c4cnc(NC(C)=O)cc34)nn(C3(C)CCOC3)c2=O)C1` (stereo not drawn), the IC50 was above 10 µM.
With `CC(=O)Nc1cc2c(-c3cc(OCC(C)C)c(=O)n(C4(C)CCC4)n3)cn(C)c2cn1`, the IC50 was determined as 1.04 µM.
For the molecule `CC(=O)Nc1cc2c(-c3cc(OCC(F)(F)F)c(=O)n([C@@H](C)C(F)(F)F)n3)cn(C)c2cn1`, the IC50 is 1.65 µM.

For the next experiment, the target named is TYK2 JH1 (Homo sapiens, UniProt P29597). Nature of the experiment: JAK kinase domain activity, ADP-Glo kinase assay, TYK2. The following applies: read-out: TYK2 JH1 IC50, substrate IRS1 (Y608) peptide, top concentration 10000 nM. As to the method: as §1, §2, §3
In the case of `CCn1cc(-c2cc(OCC(F)F)c(=O)n([C@H](C)C(F)(F)F)n2)c2cc(NC(C)=O)ncc21`, the IC50 was above 10 µM.
With `[2H]C([2H])([2H])C(=O)Nc1cc2c(-c3cc(OCC(C)(F)F)c(=O)n([C@@H](C)C(F)(F)F)n3)cn(C)c2cn1`, the IC50 was above 10 µM.
For the molecule `CC(C)COc1cc(-c2cn(C3CCC3)c3cnc(NC(N)=O)cc23)nn(C2(C)CCC2)c1=O`, the IC50 was above 10 µM.
Consider `CC(=O)Nc1cc2c(-c3cc(OCC(C)C)c(=O)n(C(C)C(F)(F)F)n3)cn(C3CC3)c2cn1` (stereo not drawn), for which the IC50 was above 10 µM.
For the molecule `COC1CN(c2cc(-c3cn(C4CC(C#N)C4)c4cnc(NC(C)=O)cc34)nn(C3(C)CCOC3)c2=O)C1` (stereo not drawn), the IC50 was above 10 µM.
Consider `CC(=O)Nc1cc2c(-c3cc(OCC(C)C)c(=O)n(C4(C)CCC4)n3)cn(C)c2cn1`, for which the IC50 was found to be 5.06 µM.
In the case of `CC(=O)Nc1cc2c(-c3cc(OCC(F)(F)F)c(=O)n([C@@H](C)C(F)(F)F)n3)cn(C)c2cn1`, the IC50 was above 10 µM.

A further experiment deals with JAK3 JH1 (Homo sapiens, UniProt P52333). Nature of the experiment: JAK kinase domain activity, ADP-Glo kinase assay, JAK3. The following applies: read-out: JAK3 JH1 IC50, substrate Poly (4:1 Glu-Tyr) peptide, top concentration 10000 nM. The method, then:
as §1, §2, §3
For `CCn1cc(-c2cc(OCC(F)F)c(=O)n([C@H](C)C(F)(F)F)n2)c2cc(NC(C)=O)ncc21`, the IC50 was above 10 µM.
Take `[2H]C([2H])([2H])C(=O)Nc1cc2c(-c3cc(OCC(C)(F)F)c(=O)n([C@@H](C)C(F)(F)F)n3)cn(C)c2cn1`: the IC50 is above 10 µM.
Take `CC(C)COc1cc(-c2cn(C3CCC3)c3cnc(NC(N)=O)cc23)nn(C2(C)CCC2)c1=O`: the IC50 is above 10 µM.
Same read-out and setting: then `CC(=O)Nc1cc2c(-c3cc(OCC(C)C)c(=O)n(C(C)C(F)(F)F)n3)cn(C3CC3)c2cn1` (stereo not drawn), with above 10 µM.
Take `COC1CN(c2cc(-c3cn(C4CC(C#N)C4)c4cnc(NC(C)=O)cc34)nn(C3(C)CCOC3)c2=O)C1` (stereo not drawn): the IC50 is above 10 µM.
As for `CC(=O)Nc1cc2c(-c3cc(OCC(C)C)c(=O)n(C4(C)CCC4)n3)cn(C)c2cn1`, the IC50 is above 10 µM.
The same measure, in the same setting: as for `CC(=O)Nc1cc2c(-c3cc(OCC(F)(F)F)c(=O)n([C@@H](C)C(F)(F)F)n3)cn(C)c2cn1`, the figure is above 10 µM.

For another experiment, the target named is JAK1 JH1 (Homo sapiens, UniProt P23458). Nature of the experiment: JAK kinase domain activity, ADP-Glo kinase assay, JAK1. Particulars: read-out: JAK1 JH1 IC50, substrate IRS1 (Y608) peptide, top concentration 10000 nM. As to the method:
as §1, §2, §3
Regarding `CCn1cc(-c2cc(OCC(F)F)c(=O)n([C@H](C)C(F)(F)F)n2)c2cc(NC(C)=O)ncc21`, the IC50 is above 10 µM.
For `[2H]C([2H])([2H])C(=O)Nc1cc2c(-c3cc(OCC(C)(F)F)c(=O)n([C@@H](C)C(F)(F)F)n3)cn(C)c2cn1`, the IC50 stood at 3.49 µM.
With `CC(C)COc1cc(-c2cn(C3CCC3)c3cnc(NC(N)=O)cc23)nn(C2(C)CCC2)c1=O`, the IC50 is above 10 µM.
On to `CC(=O)Nc1cc2c(-c3cc(OCC(C)C)c(=O)n(C(C)C(F)(F)F)n3)cn(C3CC3)c2cn1` (stereo not drawn), for which the IC50 was above 10 µM.
In the case of `COC1CN(c2cc(-c3cn(C4CC(C#N)C4)c4cnc(NC(C)=O)cc34)nn(C3(C)CCOC3)c2=O)C1` (stereo not drawn), the IC50 was above 10 µM.
On to `CC(=O)Nc1cc2c(-c3cc(OCC(C)C)c(=O)n(C4(C)CCC4)n3)cn(C)c2cn1`, for which the IC50 came to 2.36 µM.
For the molecule `CC(=O)Nc1cc2c(-c3cc(OCC(F)(F)F)c(=O)n([C@@H](C)C(F)(F)F)n3)cn(C)c2cn1`, the IC50 is 4.35 µM.

The next experiment deals with TYK2/JAK1 (Homo sapiens, UniProt P29597). Description: TYK2/JAK1 cell activity by IFNα2B stimulation, SEAP reporter in HEK-blue IFNα/β cells. Particulars: HEK-blue IFNα/β cell line, human IFNα2B 1 U/mL, 24 hours, SEAP absorbance at 630 nm.
Take `CCn1cc(-c2cc(OCC(F)F)c(=O)n([C@H](C)C(F)(F)F)n2)c2cc(NC(C)=O)ncc21`: the IC50 is above 0.5 µM.
As to `[2H]C([2H])([2H])C(=O)Nc1cc2c(-c3cc(OCC(C)(F)F)c(=O)n([C@@H](C)C(F)(F)F)n3)cn(C)c2cn1`, the IC50 was below 0.05 µM.
`CC(C)COc1cc(-c2cn(C3CCC3)c3cnc(NC(N)=O)cc23)nn(C2(C)CCC2)c1=O`: the IC50 was below 0.05 µM.
Turning to `CC(=O)Nc1cc2c(-c3cc(OCC(C)C)c(=O)n(C(C)C(F)(F)F)n3)cn(C3CC3)c2cn1` (stereo not drawn), the IC50 was below 0.05 µM.
`COC1CN(c2cc(-c3cn(C4CC(C#N)C4)c4cnc(NC(C)=O)cc34)nn(C3(C)CCOC3)c2=O)C1` (stereo not drawn): the IC50 is below 0.05 µM.
As for `CC(=O)Nc1cc2c(-c3cc(OCC(C)C)c(=O)n(C4(C)CCC4)n3)cn(C)c2cn1`, the IC50 is below 0.05 µM.
On to `CC(=O)Nc1cc2c(-c3cc(OCC(F)(F)F)c(=O)n([C@@H](C)C(F)(F)F)n3)cn(C)c2cn1`, for which the IC50 was below 0.05 µM.

For the origin of these results see EP4831173A1, “TYK2 INHIBITOR AND USE THEROF” (dated 2026).
